{"sequences": {"note": "Sequences of proteins named here, by UniProt entry; tags and fusion partners are left off.", "UniProt P30536, whole entry T147A": "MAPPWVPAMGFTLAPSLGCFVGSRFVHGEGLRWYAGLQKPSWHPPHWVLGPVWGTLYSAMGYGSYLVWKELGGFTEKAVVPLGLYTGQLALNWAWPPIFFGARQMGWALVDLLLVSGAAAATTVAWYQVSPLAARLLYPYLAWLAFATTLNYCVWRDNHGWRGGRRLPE", "UniProt P30536, whole entry, stated change not applied": "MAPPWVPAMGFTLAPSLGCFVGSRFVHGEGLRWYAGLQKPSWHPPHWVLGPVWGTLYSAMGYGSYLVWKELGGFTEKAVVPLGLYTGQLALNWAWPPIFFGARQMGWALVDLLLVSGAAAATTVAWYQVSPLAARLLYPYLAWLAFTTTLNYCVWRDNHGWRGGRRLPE"}, "source": "paper PMC6563049", "about": "“Radiosynthesis of (R,S)‐[^18F]GE387: A Potential PET Radiotracer for Imaging Translocator Protein 18 kDa (TSPO) with Low Binding Sensitivity to the Human Gene Polymorphism rs6971” (Chemmedchem, 2019)", "key": {"human TSPO wild‐type": {"target": "T1, human TSPO wild‐type (Homo sapiens, UniProt P30536)", "T1 construct": "expressed in transfected cells; host or cells: HEK cells, stably transfected; membranes", "assay": "Radioligand ([^3H]1) displacement binding on membranes of HEK cells stably transfected with wild-type TSPO", "conditions": "HEK cell membranes, [^3H]1 10 nM, 4 °C, 90 min; mean±SEM, n=3; read-out: Ki (nM) at WT (Ala/Ala) HAB", "method": "(§1) Binding affinities were measured as per our published protocol.21 Briefly, an Ultra‐Turrax homogeniser was used to prepare membranes from HEK cells stably transfected with wild‐type and A147T TSPO. […] Reactions were terminated by filtration through a 96‐well glass‐fibre filter plate (Millipore), and washed eight times with ice‐cold 50 mM Tris⋅HCl. Microscint 0 was added to the dry filters, and radioactivity read in a Microbeta^2 2450 Microplate Counter (PerkinElmer). Data were analysed using GraphPad Prism 6.0, and a four‐parameter nonlinear regression curve fit was used to calculate K i values. Data are expressed as the mean±SEM from at least three independent experiments."}, "TSPO A147T": {"target": "T2, TSPO A147T (Homo sapiens, UniProt P30536)", "T2 construct": "expressed in transfected cells; host or cells: HEK cells, stably transfected; membranes", "assay": "Radioligand ([^3H]1) displacement binding on membranes of HEK cells stably transfected with A147T TSPO", "method": "as §1, with “Microscint 0 was added to the dry filters, and radioactivity read in a Microbeta^2 2450 Microplate Counter (PerkinElmer).” left out"}}, "data": [{"smiles": "CC[C@@H](C)N(C)C(=O)c1cc2ccccc2c(-c2ccccc2Cl)n1", "note": "[(R)-1, R‐1‐(2‐chlorophenyl)‐N‐methyl‐N‐(1‐methylpropyl)‐3‐isoquinoline carboxamide]", "values": [{"measurement": "Ki", "setting": "human TSPO wild‐type", "value": "29.2 ± 7.3", "unit": "nM"}, {"measurement": "Ki", "setting": "TSPO A147T", "value": "36 ± 6.8", "unit": "nM"}]}]}
